IC50 data for nine molecules are collected here from US10112926B2 (priority 2014, dated 2018).

By UniProt entry, the sequences of proteins in these tests, tags left out. Where a name states a change or a piece, a line headed by the entry shows the natural chain unless it says otherwise.
UniProt P42336, whole entry, looked up: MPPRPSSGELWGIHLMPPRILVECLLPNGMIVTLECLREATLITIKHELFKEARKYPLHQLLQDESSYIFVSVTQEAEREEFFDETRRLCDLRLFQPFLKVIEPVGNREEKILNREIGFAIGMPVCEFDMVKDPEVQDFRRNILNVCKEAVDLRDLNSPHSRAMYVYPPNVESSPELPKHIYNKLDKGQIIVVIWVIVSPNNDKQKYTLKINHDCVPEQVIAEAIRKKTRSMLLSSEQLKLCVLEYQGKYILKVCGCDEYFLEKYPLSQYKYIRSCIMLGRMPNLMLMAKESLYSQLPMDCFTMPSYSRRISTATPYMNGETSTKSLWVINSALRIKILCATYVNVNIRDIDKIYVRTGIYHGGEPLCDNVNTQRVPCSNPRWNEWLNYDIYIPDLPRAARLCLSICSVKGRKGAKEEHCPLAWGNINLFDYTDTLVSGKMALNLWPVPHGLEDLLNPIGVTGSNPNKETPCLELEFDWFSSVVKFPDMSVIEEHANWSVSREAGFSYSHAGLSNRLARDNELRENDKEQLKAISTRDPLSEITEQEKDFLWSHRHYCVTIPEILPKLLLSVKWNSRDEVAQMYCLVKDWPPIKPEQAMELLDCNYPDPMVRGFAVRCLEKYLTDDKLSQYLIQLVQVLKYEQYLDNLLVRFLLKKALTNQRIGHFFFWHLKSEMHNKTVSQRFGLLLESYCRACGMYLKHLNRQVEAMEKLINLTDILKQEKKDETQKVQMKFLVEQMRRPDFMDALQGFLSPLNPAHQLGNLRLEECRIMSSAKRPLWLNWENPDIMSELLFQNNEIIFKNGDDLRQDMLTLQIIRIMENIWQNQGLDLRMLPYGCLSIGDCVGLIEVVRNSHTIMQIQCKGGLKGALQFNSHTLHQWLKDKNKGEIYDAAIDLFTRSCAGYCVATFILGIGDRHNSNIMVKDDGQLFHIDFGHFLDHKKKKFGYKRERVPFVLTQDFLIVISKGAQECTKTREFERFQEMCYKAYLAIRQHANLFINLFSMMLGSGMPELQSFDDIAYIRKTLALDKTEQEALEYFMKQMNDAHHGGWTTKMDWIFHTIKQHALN
UniProt P42338: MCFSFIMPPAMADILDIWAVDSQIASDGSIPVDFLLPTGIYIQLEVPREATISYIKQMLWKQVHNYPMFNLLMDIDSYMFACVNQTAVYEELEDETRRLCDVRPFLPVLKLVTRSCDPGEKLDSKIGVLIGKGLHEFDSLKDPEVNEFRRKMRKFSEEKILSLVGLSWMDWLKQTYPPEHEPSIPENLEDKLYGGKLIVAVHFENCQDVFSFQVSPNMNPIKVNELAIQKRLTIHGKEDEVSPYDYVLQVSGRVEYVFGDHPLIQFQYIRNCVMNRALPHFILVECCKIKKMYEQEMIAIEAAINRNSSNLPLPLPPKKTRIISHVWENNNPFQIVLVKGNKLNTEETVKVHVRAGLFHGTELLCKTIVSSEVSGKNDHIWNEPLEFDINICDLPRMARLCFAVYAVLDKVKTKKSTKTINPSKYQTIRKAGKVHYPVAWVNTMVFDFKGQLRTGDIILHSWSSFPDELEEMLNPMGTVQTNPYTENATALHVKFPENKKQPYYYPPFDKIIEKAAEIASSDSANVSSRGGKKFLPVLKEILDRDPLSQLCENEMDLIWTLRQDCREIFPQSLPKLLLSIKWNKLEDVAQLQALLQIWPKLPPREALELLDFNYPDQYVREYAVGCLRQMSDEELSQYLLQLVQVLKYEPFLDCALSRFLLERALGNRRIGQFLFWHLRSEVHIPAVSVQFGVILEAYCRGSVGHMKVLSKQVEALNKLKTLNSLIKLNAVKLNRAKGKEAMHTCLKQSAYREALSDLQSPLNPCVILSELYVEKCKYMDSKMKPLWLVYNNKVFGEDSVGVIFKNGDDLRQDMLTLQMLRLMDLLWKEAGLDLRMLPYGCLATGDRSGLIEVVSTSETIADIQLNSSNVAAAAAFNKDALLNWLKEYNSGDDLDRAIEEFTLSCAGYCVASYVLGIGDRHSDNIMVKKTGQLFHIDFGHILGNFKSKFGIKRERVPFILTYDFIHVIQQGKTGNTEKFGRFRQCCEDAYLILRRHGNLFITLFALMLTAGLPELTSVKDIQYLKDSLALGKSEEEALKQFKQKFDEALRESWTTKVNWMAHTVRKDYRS

One assay deals with PI 3-kinase alpha (Homo sapiens (Human), UniProt P42336). The note with it: read-out: Assay A PI3Kα IC50.
The target in another assay is PI 3-kinase beta (Homo sapiens (Human), UniProt P42338). The note with it: read-out: Assay B PI3Kβ IC50.
Assay [1] addresses PI 3-kinase alpha (Rat-1 pBABEpuro Myr-HA-hp110 alpha cells) (Homo sapiens (Human), UniProt P42336). The assay is described as follows: cell-based. The note with it: Assay H PI3Kα IC50.
For assay [2], the target named is PI 3-kinase beta (Rat-1 pBABEpuro Myr-HA-hp110 beta cells) (Homo sapiens (Human), UniProt P42338). As to the kind of experiment: cell-based. The note with it: Assay I PI3Kβ IC50.

Where a name gives a salt, the structure may show the parent alone.

Broadly, the IC50 is the concentration at which inhibition is half-maximal. In the case of `Cc1cc(-c2cc(-c3cc(S(=O)(=O)N4CC(CO)C4)ccc3C)cnc2N)on1` [Example 37.12, (1-((3-(6-Amino-5-(3-methylisoxazol-5-yl)pyridin-3-yl)-4-methylphenyl)sulfonyl)azetidin-3-yl)methanol], the half-inhibitory concentration (IC50) at PI 3-kinase alpha is 810 nM; at PI 3-kinase beta it was 6700 nM; in assay [1], 7620 nM; in assay [2] it was greater than 10000 nM.
In the same order, the values of `Cc1noc(-c2cc(-c3cc(S(=O)(=O)NC(CO)C4CCOC4)ccc3C)cnc2N)n1` (stereo not drawn) [Example 37.21, 3-(6-Amino-5-(3-methyl-1,2,4-oxadiazol-5-yl)pyridin-3-yl)-N-(2-hydroxy-1-(tetrahydrofuran-3-yl)ethyl)-4-methylbenzenesulfonamide] are 1800 nM, 10000 nM, greater than 10000 nM and 2520 nM.
Turning to `Cc1cnc(-c2cc(-c3cc(S(=O)(=O)NCC(C)(C)O)ccc3C)cnc2N)s1` [Example 90, 3-(6-Amino-5-(5-methylthiazol-2-yl)pyridin-3-yl)-N-(2-hydroxy-2-methylpropyl)-4-methylbenzenesulfonamide], the IC50 on PI 3-kinase alpha was 160 nM; at PI 3-kinase beta it was 880 nM; in assay [1] it was greater than 10000 nM; in assay [2], 3570 nM.
The like results for `Cc1nc(-c2cc(-c3cc(S(=O)(=O)N[C@H]4CC[C@H](O)CC4)ccc3C)cnc2N)cs1` [Example 92, 3-(6-Amino-5-(2-methylthiazol-4-yl)pyridin-3-yl)-N-((1r,4r)-4-hydroxycyclohexyl)-4-methylbenzenesulfonamide] were, in that order, 1600 nM, 1900 nM, greater than 10000 nM and greater than 10000 nM.
The like results for `Cc1cc(-c2cc(-c3cc(S(=O)(=O)NCC(C)(C)O)ccc3C)cnc2N)sn1` [Example 4.8, 3-(6-Amino-5-(3-methylisothiazol-5-yl)pyridin-3-yl)-N-(2-hydroxy-2-methylpropyl)-4-methyl-benzenesulfonamide hydrochloride] were, in that order, 570 nM, 4650 nM, greater than 10000 nM and 4470 nM.
The like results for `Cc1ccc(S(=O)(=O)NCCC(C)(C)O)cc1-c1cnc(N)c(-c2cnn(C)n2)c1` [Example 106, 3-(6-amino-5-(2-methyl-2H-1,2,3-triazol-4-yl)pyridin-3-yl)-N-(3-hydroxy-3-methylbutyl)-4-methylbenzenesulfonamide] were, in that order, 330 nM, 2700 nM, 1140 nM and 1020 nM.
As for `Cc1ccc(S(=O)(=O)N[C@H]2CC[C@H](O)CC2)cc1-c1cnc(N)c(-c2cnn(CC(F)(F)F)c2)c1` [Example 4.2, trans 3-(6-Amino-5-(1-(2,2,2-trifluoroethyl)-1H-pyrazol-4-yl)pyridin-3-yl)-N-(4-hydroxycyclohexyl)-4-methyl-benzenesulfonamide], the IC50 on PI 3-kinase alpha was 210 nM; at PI 3-kinase beta, 900 nM; in assay [1], greater than 10000 nM; in assay [2], 4890 nM.
In the same order, the values of `Cc1cc(-c2cc(-c3cc(S(=O)(=O)NCC4(CO)CCCC4)ccc3C)cnc2N)on1` [Example 37.23, 3-(6-Amino-5-(3-methylisoxazol-5-yl)pyridin-3-yl)-N-((1-(hydroxymethyl)cyclopentyl)methyl)-4-methylbenzenesulfonamide] are 130 nM, 2200 nM, 2910 nM and greater than 10000 nM.
The like results for `Cc1ncc(-c2cc(-c3cc(S(=O)(=O)NCCC(C)(C)O)ccc3C)cnc2N)s1` [Example 4, 3-(6-Amino-5-(2-methylthiazol-5-yl)pyridin-3-yl)-N-(3-hydroxy-3-methylbutyl)-4-methylbenzenesulfonamide] were, in that order, 190 nM, 1870 nM, 1250 nM and 2310 nM.
